Some results are limits rather than exact numbers.

Chains of the proteins cited; added tags and fusions are not shown.
UniProt Q96GD4, whole entry: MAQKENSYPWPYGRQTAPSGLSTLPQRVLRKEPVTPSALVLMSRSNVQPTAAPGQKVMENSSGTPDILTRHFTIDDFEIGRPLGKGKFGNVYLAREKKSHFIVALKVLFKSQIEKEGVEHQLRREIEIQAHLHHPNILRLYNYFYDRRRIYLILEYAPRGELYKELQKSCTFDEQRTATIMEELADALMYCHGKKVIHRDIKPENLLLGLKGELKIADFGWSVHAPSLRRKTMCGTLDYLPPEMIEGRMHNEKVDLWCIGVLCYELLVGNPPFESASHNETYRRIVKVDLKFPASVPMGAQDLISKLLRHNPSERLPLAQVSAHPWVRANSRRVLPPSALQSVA

For test [1], the system named is MV4-11 acute myelogenous leukemia cells. Put plainly: Cell proliferation assay MV4-11. The conditions noted are these: read-out: IC50 value, MV4-11 cells, 72 hours. The method, then: MV4-11 acute myelogenous leukemia cells were purchased from American Type Culture Collection (cat. no. CRL-9591, ATCC). Frozen stocks were thawed and cells were diluted in IMDM cell culture medium (cat. no. 31980022, Life Technologies), supplemented with 10% (v/v) bovine calf serum and 1% penicillin/streptavidin. 1600 cells per well (in 45 μl) were seeded in a white 384-well culture plate (cat. no. 781080, Greiner Bio-One) and allowed to rest for 24 hours at 37 °C, 95% humidity, and 5% CO2. 5 μl compound solution was added to the cells and incubation was continued for 72 hours (3 days), followed by addition of 24 μl ATPlite 1Step™ (PerkinElmer, Groningen, The Netherlands) solution was added to each well. Luminescence was recorded on an Envision multimode reader. The cell signal at the start of incubation was recorded separately in order to distinguish between cell population growth and cell death. In addition, maximum growth was determined by incubation of a duplicate without compound in the presence of 0.3% DMSO. Percentage growth was used as the main y-axis signal. IC50s were fitted by non-linear regression using IDBS XLfit™ 5 using a 4-parameter logistic curve, yielding a maximum signal, minimum signal, hill-parameter and IC50.

A further test has as its target AurB (Homo sapiens, UniProt Q96GD4). Briefly: Binding kinetics assay (surface plasmon resonance) AUR-B. To be noted: SPR, 22 °C. The text has this:
Binding Kinetics Assay wt-BTK, BTK C481S, LCK, FGFR1, FLT3, PDGFR-β, FMS, LYN, MEK1, AUR-B. ITK. VEGFR, EGFR, FGFR3, AXL, c-MET, SRC, YES, ABL, RET and IGFR1 (Surface Plasmon Resonance)
Streptavidin-coated chips (Cat. No. BR100531), disposables and maintenance kits for Biacore were purchased from Cytiva (Eindhoven, The Netherlands). Biotinylated wt-BTK enzym (Carna Biosciences, cat. no. 08-480-20N), BTK C481S (Carna Biosciences, cat. no. 08-417-20N), LCK (Carna Biosciences, cat. no. 08-470-20N), FGFR1 (Carna Biosciences, cat. no. 08-435-20N), FLT3 (Carna Biosciences, cat. no. 08-454-20N), PDGFR-β (Carna Biosciences, cat. no. 08-458-20N), FMS (Carna Biosciences, cat. no. 08-455-20N), LYN (Carna Biosciences, cat. no. 08-471-20N), MEK1 (Carna Biosciences, cat. no. 07-441-10-20N), AUR-B (Carna Biosciences, cat. no. 05-402-21N), ITK (Carna Biosciences, cat. no. 08-481-20N), VEGFR (Carna Biosciences, cat. no. 08-491-20N), EGFR (Carna Biosciences, cat. no. 08-415-20N), FGFR3 (Carna Biosciences, cat. no. 08-433-20N), AXL (Carna Biosciences, cat. no. 08-407-20N), c-MET (Carna Biosciences, cat. no. 08-451-20N), SRC (Carna Biosciences, cat. no. 08-473-20N), YES (Carna Biosciences, cat. no. 08-475-20N), ABL (Carna Biosciences, cat. no. 08-401-20N), RET (Carna Biosciences, cat. no. 08-459-20N) or IGFR1 (Carna Biosciences, cat. no. 08-441-20N) were immobilized on a streptavidin-coated chip to a level of about 8000 resonance units (RU) using Biacore buffer (50 mM Tris pH 7.5, 0.05% (v/v) Tween-20, 150 mM NaCl and 5 mM MgCl2)+1 mM TCEP. Remaining streptavidin was blocked with biocytin. Immobilization was performed at 4 °C. Subsequent assay steps were conducted at 22 °C. After changing buffer to Biacore buffer with 1% (v/v) dimethylsulfoxide (DMSO), a pre-run was performed for a period of at least 30 min at a flow rate of 30 μl/min to obtain a stable surface. The kinetic constants of the compounds were determined with single cycle kinetics with five consecutive injections with an increasing compound concentration with ranges of 3.16-316 nM. Experiments were performed with an association time of 100 s per concentration and a dissociation time of 1200 s, except for compounds with a long target residence time, such as irreversible inhibitors, where dissociation time was increased. To circumvent problems of mass transport limitation, a flow rate of 30 μl/min was used. A blank run with the same conditions was performed before the compound was injected. The SPR sensorgrams were analyzed with Biacore Evaluation Software by using a method of double referencing. First the reference channel was subtracted from the channel containing immobilized protein. Subsequently, the reference curve obtained with buffer injections was subtracted. The resulting curve was fitted with a 1:1 binding model. Compounds that bound according to an induced fit model were fitted with a two-state reaction model. The kinetic constants (ka, […], KD) of duplicates were geometrically averaged. Target residence time (τ) for the 1:1 binding model was calculated from the dissociation constant kd with the formula T=1/kd. Target residence for an induced fit model was calculated as described (Tummino and Copeland, 2008).

Test [2] concerns CCRF-HSB-2 T acute lymphoblastic leukemia cells. Briefly: Cell proliferation assay CCRF-HSB-2. The conditions noted are these: read-out: IC50 value, CCRF-HSB-2 cells, 72 hours. The method, then: CCRF-HSB-2 T acute lymphoblastic leukemia cells were purchased from Deutsche Sammlung von Mikroorganismen und Zellkulturen (cat. no. ACC 435, DSMZ). Frozen stocks were thawed and cells were diluted in RPMI-1640 cell culture medium (cat. no. 61870036, Life Technologies), supplemented with 10% (v/v) bovine calf serum and 1% penicillin/streptavidin. 3200 cells per well (in 45 μl) were seeded in a white 384-well culture plate (cat. no. 781080, Greiner Bio-One) and allowed to rest for 24 hours at 37 °C, 95% humidity, and 5% CO2. 5 μl compound solution was added to the cells and incubation was continued for 72 hours (3 days), followed by addition of 24 μl ATPlite 1Step™ (PerkinElmer, Groningen, The Netherlands) solution was added to each well. Luminescence was recorded on an Envision multimode reader. The cell signal at the start of incubation was recorded separately in order to distinguish between cell population growth and cell death. In addition, maximum growth was determined by incubation of a duplicate without compound in the presence of 0.3% DMSO. Percentage growth was used as the main y-axis signal. IC50s were fitted by non-linear regression using IDBS XLfit™5 using a 4-parameter logistic curve, yielding a maximum signal, minimum signal, hill-parameter and IC50.

Turning to `CC(C)(C)c1cc(NC(=O)Cc2ccc(-c3nc4n5c(cnc(N)c35)/C=C/CCOCCC(=O)N[C@@H]3CCC[C@@H]4C3)cc2)no1`, the IC50 in test [1] is < 50 nM.
Take `Nc1ncc2c3c1c(-c1ccc(C(=O)Nc4cc(C(F)(F)F)ccn4)cc1)nn3[C@@H]1CCC[C@H](C1)NC(=O)[C@H]1CN(C/C=C/2)CCN1`: on AurB, the Kd fell in the range of 5 to 50 nM and the “Target residence time Tau (τ)” value is reported as “C (τ 3 h)”. In addition, in test [2], the IC50 was < 50 nM.

Broadly, the IC50 is the concentration at which inhibition is half-maximal. As a reminder, the Kd is the free concentration of one partner at which half of the binding sites on the other are occupied at equilibrium, for simple one-to-one binding. Read a low Kd as a tighter complex.
